TDP1 cell noCPT = qHTS for Inhibitors of human tyrosyl-DNA phosphodiesterase 1 (TDP1): qHTS in cells in absence of CPT; AID 686978, 2013; DT40 Tdp1-/- hTDP1 cells, no CPT, ATP luminescence, 48 h; hit rate 15% among 420,000; Potency, µM (titrated, usually from 46.2 µM), inactives show at the highest dose activity change, negative = growth inhibition, most hits filed as inhibitors; also: potency is read from the fitted curve at half-maximal effect; % is scaled to controls: 0 for no effect and ±100 for the full control effect; nearly all actives have a fitted effect of over 55% in size
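Chicken DT40 Tdp1-/- cells stably complemented with human TDP1 were seeded at 400 cells/well with DMSO in place of 20 nM camptothecin. After compound pinning, cells grew at least 48 hr at 37 °C; viability read by CellTiter-Glo luminescence.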
TDP1 inh = TDP1 (human) enzyme inhibition | Potency, µM (titrated, usually from 130 µM), for inactives: top-dose activity change, negative = inhibition, hits mostly inhibitors | recombinant TDP1, AlphaScreen DNA substrate cleavage | hit rate 0.28% among 350,000 | AID 485290; also: potency is read from the fitted curve at half-maximal effect; % is scaled to controls: 0 for no effect and ±100 for the full control effect; nearly all actives have a fitted effect of over 40% in size
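Here, a 5' biotin and 3' phosphotyrosine-FITC DNA oligonucleotide reports Tdp1 activity: intact substrate bridges AlphaScreen beads, while cleavage leaves a 3' phosphate and drops signal. All incubations at room temperature.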
TDP1 cell CPT = DT40-hTDP1 cell growth loss with CPT; chicken DT40 Tdp1-/-;hTDP1 cells + 20 nM CPT, ATP luminescence, 48 h; AID 686979; hit rate 12% among 420,000; Potency, µM (highest dose often 46.2 µM), for the others: top-dose activity change, negative = growth inhibition, most hits filed as inhibitors; also: potency is read from the fitted curve at half-maximal effect; % is scaled to controls: 0 for no effect and ±100 for the full control effect; nearly all actives have a fitted effect of over 55% in size
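Cell growth measured by CellTiter-Glo luminescence after a minimum 48 h, 37 C compound exposure with 20 nM CPT in Tdp1-knockout DT40 cells stably expressing hTDP1, seeded 400/well; qHTS titration format.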
uPA generation = blocks generation of uPA at the cell surface; cell surface uPA generation assay, qHTS; Potency, µM (top dose mostly 38.3 µM), without a hit: top-dose activity change, negative = inhibition, hits mostly inhibitors; hit rate 0.31% among 330,000; active = well fitted inhibition curve with a large enough effect; inconclusive = small, poorly fitted or top-dose-only effect; inactive = no such curve, though single readings can be large or run the other way; tested in mouse RAW 264.7 cells; also: potency is read from the fitted curve at half-maximal effect; % is scaled to controls: 0 for no effect and ±100 for the full control effect; nearly all actives have a fitted effect of over 55% in size
miR-21 reporter = miR-21 reporter, rising signal | HeLa miR-21 FLuc reporter, luciferase, 48 h | Potency, µM (doses to about 38.3 µM), inactives show at the top dose reporter change, positive = more light | 340,000 tested, under 10 active | AID 2288; active = well fitted rising curve with a large enough effect; inconclusive = small, poorly fitted or top-dose-only effect; inactive = no such curve, though single readings can be large or run the other way;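 note: % of control where 0% means no effect; miR-21 action dims this reporter so a rising signal means less miR-21 action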
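HeLa cells endogenously expressing miR-21, stably carrying CMV-driven firefly luciferase with a downstream miR-21 binding site, 2000 cells/well. Titrations up to approximately 40 uM, 48 hours; luciferase luminescence read.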
The depositor's hits bear a star; ? = inconclusive; · = not tested or not shown; [ ] = another dose, or the depositor's remark. Shown are actives, neighbours in structure and some others; about 16% of the full set was active somewhere. Unless noted, calls follow the shape of the dose curve; as a rule, active = well fitted curve in the direction sought with a large enough effect; inconclusive = small, poorly fitted or top-dose-only effect, or another doubt; inactive = no such curve, though single readings can be large; an effect the other way counts as inactive or inconclusive.

Values run as follows: TDP1 cell noCPT, TDP1 inh, TDP1 cell CPT, uPA generation, miR-21 reporter
- COc1ccccc1CN(C)C[C@@H]1OCc2cnnn2CCCC(=O)N([C@@H](C)CO)C[C@H]1C
    -9%, ·, 1%, ·, ·
- C[C@@H]1CN([C@H](C)CO)C(=O)CCCn2nncc2CO[C@H]1CN(C)Cc1ccccc1C(F)(F)F
    21µM*, ·, 15µM*, ·, ·
- C[C@H](CO)N1C[C@H](C)[C@@H](CN(C)Cc2ccc(C(F)(F)F)cc2)OCc2cnnn2CCCC1=O
    ?, ·, 26µM*, ·, ·
- C[C@H]1CN([C@@H](C)CO)C(=O)CCCn2nncc2CO[C@@H]1CN(C)Cc1ccc(C(F)(F)F)cc1
    -29%, ·, 3%, ·, ·
- C[C@H]1CN([C@@H](C)CO)C(=O)CCCn2nncc2CO[C@H]1CN(C)S(=O)(=O)c1ccc(Oc2ccccc2)nc1
    8.2µM*, ·, 10µM*, ·, ·
- O=C(COC(=O)c1ccccc1-n1cnnn1)c1ccc(Br)cc1
    13%, ·, -7%, -10%, ·
- O=S(=O)(c1ccccc1)N1N=C(c2ccc(O)cc2)CC1c1ccco1 (stereo unspecified)
    7.3µM*, 6%, 8.2µM*, ?, 9%
- COc1ccccc1C1CC(c2ccc(NS(C)(=O)=O)cc2)=NN1S(=O)(=O)c1ccccc1 (stereo unspecified)
    -12%, 5%, -13%, 1%, -3%
- O=S(=O)(c1ccccc1)N1N=C(c2ccc(Br)cc2)CC1c1ccco1 (stereo unspecified)
    16µM*, 2%, 16µM*, -16%, 14%
- O=S(=O)(c1ccccc1)N1N=C(c2ccccc2)CC1c1ccccc1F (stereo unspecified)
    ?, ·, 16µM*, -9%, -13%
- CCC(C(=O)NCCc1ccc(SC)cc1)n1nc(C)c2c(C)n(-c3ccc(C)cc3)nc2c1=O (stereo unspecified)
    16µM*, 0%, 13µM*, ·, 26%
- Cc1ccc(-n2nc3c(=O)n(C(C)C(=O)NCc4ccccc4C)nc(C)c3c2C)cc1 (stereo unspecified)
    23µM*, -8%, ?, ·, 5%
- CCOc1ccccc1CNC(=O)C(CC)n1nc(C)c2c(C)n(-c3ccccc3)nc2c1=O (stereo unspecified)
    ?, 6%, 18µM*, ·, 14%
- Cc1ccc(-n2nc3c(=O)n(C(C)C(=O)NCc4ccc(OC(C)C)cc4)nc(C)c3c2C)cc1 (stereo unspecified)
    13µM*, 0%, 16µM*, ·, ?
- COC(=O)c1nn2c(C(F)(F)F)cc(-c3ccc(Br)o3)nc2c1Br
    -12%, 10%, ?, ·, -1%
- CCOCN(C(=O)Cn1cnc2cc(C)c(C)cc21)c1c(C)cccc1CC
    16µM*, 8%, 21µM*, ·, 27%
- CCOCN(C(=O)Cn1c(COC)nc2ccccc21)c1c(C)cccc1CC
    ?, 5%, ?, 3%, 0%
- O=S(=O)(/C=C/c1ccccc1)Oc1ccccc1
    16µM*, -7%, 26µM*, ·, 18%
- CCCNS(=O)(=O)/C=C/c1ccccc1
    2%, -3%, 9%, -5%, 0%
- CC(NC(=O)c1cc(F)c(F)cc1Cl)c1ccncc1 (stereo unspecified)
    -3%, ·, -17%, 0%, -1%
- CCOc1ccccc1OCC(=O)NN1Cc2ccccc2C1=N
    -6%, 6%, 1%, 1%, 1%
- CC1(C)CC(NC2C3CC4CC(C3)CC2C4)CC(C)(C)N1 (stereo unspecified)
    15µM*, 3%, 18µM*, 4%, -9%
- Cc1cc(CNC(=O)COc2ccc(F)cc2F)c2ccccc2n1
    ?, 0%, ?, -3%, -4%
- Cc1cc(CNC(=O)COc2cc(F)ccc2[N+](=O)[O-])c2ccccc2n1
    12µM*, 3%, 12µM*, -5%, 10%
- Cc1cc(CNC(=O)c2cccc([N+](=O)[O-])c2C)c2ccccc2n1
    12µM*, 3%, 10µM*, -3%, ?
- Cc1cc(CNC(=O)COc2ccccc2F)c2ccccc2n1
    ?, 8%, 15µM*, -11%, -19%
- Cc1ccccc1CN1C(=O)c2ccccc2Sc2ccc(C(=O)NC3CCCCC3)cc21
    16µM*, 5%, 15µM*, ·, -2%
- O=C(NC1CCCC1)c1ccc2c(c1)N(Cc1ccccc1F)C(=O)c1ccccc1S2
    15µM*, 3%, ?, ·, -1%
- Cc1cc(C(=O)N/N=C/c2ccc(O)c(O)c2O)c(C)n1-c1ccccc1
    3.3µM*, 0%, 4.6µM*, -15%, -21%
- COc1ccc(/C=N/NC(=O)c2cccs2)c2ccccc12
    8.2µM*, ·, ?, 3%, ·

Five compounds from above with just TDP1 cell noCPT:
mol	TDP1 cell noCPT
CCOCN(C(=O)Cn1cnc2cc(C)c(C)cc21)c1c(C)cccc1CC	16µM*
CCOCN(C(=O)Cn1c(COC)nc2ccccc21)c1c(C)cccc1CC	?
O=S(=O)(/C=C/c1ccccc1)Oc1ccccc1	16µM*
CCCNS(=O)(=O)/C=C/c1ccccc1	2%
CC(NC(=O)c1cc(F)c(F)cc1Cl)c1ccncc1 (stereo unspecified)	-3%

Next section.
Values run as follows: TDP1 cell noCPT, TDP1 inh, TDP1 cell CPT, uPA generation, miR-21 reporter
- COc1ccc(/C=N/NC(=O)c2cccnc2)c2ccccc12
    -26%, ·, 1%, 3%, -3%
- Cc1cc(/C=N/NC(=O)c2cccs2)c(C)n1-c1ccccc1
    13µM*, 8%, 16µM*, -8%, 2%
- NC(=O)C1CC(=O)N(Cc2ccc3c(c2)OCO3)C(=Nc2ccccc2)S1 (stereo unspecified)
    -13%, -6%, -10%, -1%, -6%
- Cc1ccccc1CSCC(=O)c1c(N)n(CC(C)C)c(=O)n(C)c1=O
    23µM*, -7%, ?, -14%, 0%
- CC(C)Cn1c(N)c(C(=O)CSc2ccccc2)c(=O)n(C)c1=O
    8.2µM*, 0%, 16µM*, -4%, -9%
- Cc1ccccc1CSCC(=O)c1c(N)n(C)c(=O)n(C)c1=O
    ?, 5%, ?, -5%, -31%
- CC(=O)NC(=S)c1c(N)n(Cc2ccccc2)c(=O)n(C)c1=O
    ·, 1%, ·, ·, -4%
- CC(=O)Nc1ccc(SCC(=O)c2c(N)n(Cc3ccccc3)c(=O)n(C)c2=O)cc1
    8.2µM*, 0%, ?, -2%, -12%
- CCCn1c(N)c(C(=O)CSc2nc(C)cs2)c(=O)n(C)c1=O
    12µM*, 2%, ?, -6%, 16%
- CCCCN1C=C(C(=O)c2ccccc2)C(=O)CC1
    -5%, ·, -9%, 14%, ·
- O=c1oc2cc(Br)ccc2n1Cc1ccccc1
    -23%, -6%, 31%, 4%, -12%
- Cn1c(N)c(C(=O)COC(=O)/C=C/c2ccc(Cl)cc2)c(=O)n(C)c1=O
    ?, 0%[56.1 µM], ?, -3%, ·
- CC(C)Cn1c(N)c(C(=O)COC(=O)/C=C/c2ccccc2)c(=O)n(C)c1=O
    ?, -3%, 15µM*, -3%, ·
- Cc1ccccc1OCC(=O)NCC(=O)OC(c1ccccc1)c1ccccc1
    -12%, 0%, -9%, ·, ·
- CCc1ccc(C2CC(=O)N(c3cccc(C(F)(F)F)c3)C3=C2C(=O)OC3)cc1 (stereo unspecified)
    -6%, 1%, 8%, ·, 1%

As entered above.
Under TDP1 inh, CC(C)Cn1c(N)c(C(=O)COC(=O)/C=C/c2ccccc2)c(=O)n(C)c1=O reads -3%
Under TDP1 cell CPT, CCOc1ccccc1OCC(=O)NN1Cc2ccccc2C1=N reads 1%
